One test deals with T1, Neurokinin NK2 (Homo sapiens, UniProt P21452).
T1 construct: expressed in transfected cells; host or cells: CHO cells
As to the kind of experiment: Radioligand binding, [125I]NKA.

The chains behind the UniProt entries cited, without tags or fusion partners. Where a name states a change or a piece, a line headed by the entry shows the natural chain unless it says otherwise.
UniProt P21452, whole entry: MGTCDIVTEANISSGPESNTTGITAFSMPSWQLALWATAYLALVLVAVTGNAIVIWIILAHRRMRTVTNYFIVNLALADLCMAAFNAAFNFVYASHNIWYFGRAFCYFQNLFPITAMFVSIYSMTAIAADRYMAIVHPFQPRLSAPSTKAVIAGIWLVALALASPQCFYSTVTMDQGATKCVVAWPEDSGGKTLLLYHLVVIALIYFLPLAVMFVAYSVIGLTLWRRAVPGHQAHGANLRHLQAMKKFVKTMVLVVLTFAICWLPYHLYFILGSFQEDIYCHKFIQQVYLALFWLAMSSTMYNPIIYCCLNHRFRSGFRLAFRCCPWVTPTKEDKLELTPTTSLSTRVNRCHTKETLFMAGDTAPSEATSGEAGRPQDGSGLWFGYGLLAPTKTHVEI
UniProt P43116: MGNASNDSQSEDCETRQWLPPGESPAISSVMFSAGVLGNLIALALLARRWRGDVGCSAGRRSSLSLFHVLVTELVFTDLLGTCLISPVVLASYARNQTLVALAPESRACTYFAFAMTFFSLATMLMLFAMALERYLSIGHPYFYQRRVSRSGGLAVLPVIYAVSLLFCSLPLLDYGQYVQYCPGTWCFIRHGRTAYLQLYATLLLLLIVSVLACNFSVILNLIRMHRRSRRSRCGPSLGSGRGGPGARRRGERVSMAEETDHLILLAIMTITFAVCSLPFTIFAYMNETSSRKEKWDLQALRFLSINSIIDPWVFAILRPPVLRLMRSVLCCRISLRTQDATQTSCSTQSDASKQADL

For a further test, the target named is T2, EP2 (Homo sapiens, UniProt P43116).
T2 construct: expressed in transfected cells; host or cells: HEK-293 cells
Description: Radioligand binding, [3H]PGE2. As to conditions: reference compound run for the assay.

Turning to `CCCC[C@H](NC(=O)[C@H](CC(C)C)NC(=O)CNC(=O)[C@@H](NC(=O)[C@H](Cc1ccccc1)NC(=O)[C@H](CO)NC(=O)[C@@H](N)CC(=O)O)C(C)C)C(N)=O`, at Neurokinin NK2, the IC50 – broadly, the concentration that inhibits the measured activity by half – stood at 2.7 nM.

In the case of `CCCCC[C@H](O)/C=C/[C@H]1[C@H](O)CC(=O)[C@@H]1C/C=C\CCCC(=O)O` [PGE2], the IC50 on EP2 turned out to be 1.7 nM.

Source of the values: article PMC8086025, “A benzopyran with antiarrhythmic activity is an inhibitor of Kir3.1-containing potassium channels” (The Journal of Biological Chemistry, 2021).
